How the values were obtained:
[1] = Sessile drop water contact angle (CA) on resin pellets; assay type: physicochemical
Experimental: (§1) Experimental resin (UPE) was formulated from the commercially available monomers urethane dimethacrylate (UDMA, 50.91% w/w), polyethylene glycol extended urethane dimethacrylate (PEG-U, 18.18% w/w), and ethyl 2-(hydroxymethyl)acrylate (EHMA, 30.91% w/w). A conventional visible light initiator system comprised of camphorquinone (0.2% w/w) and ethyl-4-N,N-dimethylamino benzoate (4EDMAB, 0.8% w/w) was utilized. […] Copolymer specimens (beams) were prepared by depositing UPE (UPE resin control) and AM-UPE resins into glass molds (2 mm×2 mm×25 mm) and photopolymerizing them with a dental curing light (Triad 2000, Dentsply, Charlotte, N.C., USA) for 2 minutes from two sides. Copolymer specimens (pellets) were prepared by depositing UPE and AM-UPE resins into a stainless-steel mold (1 mm×16 mm), sandwiched between two sheets of Mylar film and two glass slides and photopolymerized in the same manner as the beam samples. Degree of vinyl conversion (DVC) of UPE and AM-UPE resins was determined utilizing beam samples by collecting the near infra-red (NIR) spectra (Nexus 670, ThermoFisher, Madison, Wis., USA) before and 24 h after polymerization and calculating the reduction in absorption band at 6165 cm^−1 corresponding to the vinyl (C═C—H) overtone signal. […] The DVC was calculated as: […]
where Area(polymer) and Area(monomer) correspond to the areas under 6165 cm^−1 peaks after and before the polymerization, respectively. After DVC analysis, flexural strength (FS) and elastic modulus (E) of beam specimen were determined employing the Universal Testing Machine (Instron 5500R, Instron Corp., Canton, Mass., USA). […] The FS and E of the specimens (three replicates/experimental group) was calculated as instructed in the ISO4049:2009 document. Changes in hydrophilicity/hydrophobicity of UPE resins due to the introduction of AM monomers were assessed on pellet specimen by sessile drop contact angle (CA) measurements (drop shape analyzer DSA100, Krüss GmbH, Hamburg, Germany). […] The CA water values were calculated employing the Krüss Advance software. […]

[2] = Degree of vinyl conversion (DVC) by near infra-red spectra of copolymer beams; assay type: physicochemical; details: 10 mass percent in UPE resin
Experimental: as §1, with “Copolymer specimens (pellets) were prepared by depositing UPE and AM-UPE resins into a stainless-steel mold (1 mm×16 mm), sandwiched between two sheets of Mylar film and two glass slides and photopolymerized in the same manner as the beam samples.” left out
where Area(polymer) and Area(monomer) correspond to the areas under 6165 cm^−1 peaks after and before the polymerization, respectively. After DVC analysis, flexural strength (FS) and elastic modulus (E) of beam specimen were determined employing the Universal Testing Machine (Instron 5500R, Instron Corp., Canton, Mass., USA). […]

2-(methacryloyloxy)-N,N,N-trimethylethan-1-aminium dodecyl sulfate [AMmis1]
surface properties of copolymer pellet ([1]; 10 mass percent in UPE resin): amphiphilic surface properties | CA, more hydrophilic side of the copolymer pellet ([1]; UPE with AMmis1 at 10 mass percent): 37.1±11.4 ° | CA, other side of the copolymer pellet ([1]; UPE with AMmis1 at 10 mass percent, side retaining hydrophobic-hydrophilic balance): 64.8±2.4 ° | DVC compared to UPE resin control [2]: maintained the DVC of copolymer at the same level as the UPE resin control

Source: patent US20200148803A1, “POLYMERIZABLE MULTIFUNCTIONAL ANTIMICROBIAL QUATERNARY AMMONIUM MONOMERS, METHODS OF SYNTHESIS, AND USES THEREOF” (ADA Foundation, priority 2018, published 2020)
